Calls of active or inactive are those of the source. The rule behind the calls is not given here.
Key:
[1] = target: Muscarinic acetylcholine receptors; M1 & M2 (Homo sapiens) (UniProt P11229+P08172); experiment: Selectivity ratio for m1 over m2 muscarinic receptors was determined; Not active; format: protein assay
[2] = Ratio of RQNB to RCMD was determined; Not active

By UniProt entry, the sequences of proteins in these tests, tags left out. Where a name states a change or a piece, a line headed by the entry shows the natural chain unless it says otherwise.
UniProt P11229: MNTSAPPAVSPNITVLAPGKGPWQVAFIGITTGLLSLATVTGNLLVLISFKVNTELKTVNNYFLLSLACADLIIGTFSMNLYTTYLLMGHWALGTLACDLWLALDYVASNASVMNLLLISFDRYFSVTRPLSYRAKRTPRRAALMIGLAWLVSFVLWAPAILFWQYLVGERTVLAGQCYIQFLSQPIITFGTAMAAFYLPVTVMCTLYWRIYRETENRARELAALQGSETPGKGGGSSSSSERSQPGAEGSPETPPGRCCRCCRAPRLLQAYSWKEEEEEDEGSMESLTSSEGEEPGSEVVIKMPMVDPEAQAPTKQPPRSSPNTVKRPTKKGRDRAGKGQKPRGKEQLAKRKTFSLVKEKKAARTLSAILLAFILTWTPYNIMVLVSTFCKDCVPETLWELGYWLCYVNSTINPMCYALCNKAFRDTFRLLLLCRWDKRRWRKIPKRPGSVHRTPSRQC
UniProt P08172, whole entry, looked up: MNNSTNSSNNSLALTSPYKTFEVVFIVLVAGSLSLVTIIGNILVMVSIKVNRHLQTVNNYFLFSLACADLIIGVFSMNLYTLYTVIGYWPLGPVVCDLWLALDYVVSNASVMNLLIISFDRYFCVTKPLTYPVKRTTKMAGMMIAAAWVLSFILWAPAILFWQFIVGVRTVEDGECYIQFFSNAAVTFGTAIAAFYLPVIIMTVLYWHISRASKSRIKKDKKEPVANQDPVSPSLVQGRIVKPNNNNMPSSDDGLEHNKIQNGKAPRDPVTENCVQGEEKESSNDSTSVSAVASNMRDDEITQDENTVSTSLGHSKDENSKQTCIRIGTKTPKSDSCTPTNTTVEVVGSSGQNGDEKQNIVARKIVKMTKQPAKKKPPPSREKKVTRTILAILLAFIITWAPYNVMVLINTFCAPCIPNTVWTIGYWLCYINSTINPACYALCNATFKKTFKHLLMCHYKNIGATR

## O/N=C1\CN2CCC1C2 (configuration not stated)
[1]
  Ratio: inactive
[2]
  Ratio: inactive

— ChEMBL document CHEMBL1150001, “A rationale for the design and synthesis of m1 selective muscarinic agonists” (Bioorg Med Chem Lett, 1992)
